Measured values published in patent US20250327029A1, “PROCESS FOR THE OBTENTION OF INVARIANT NATURAL KILLER T CELLS” (Université de Lorraine, priority 2022, published 2025).

System: CD4^− iNKT cells
Assay: Expansion of iNKT cells from PBMC cultured with alpha-GalCer and a cytokine (IL-15 or IL-2)
Format: cell-based, human
Method: The method according to the present invention is characterized by the fact that the expansion factor of iNKT cells is equal to or higher than 10, preferably 100, more preferably 500. The expansion factor of iNKT cells is more preferably comprised between 100 and 10 000. The “expansion factor” corresponds to the number of iNKT cells obtained at day 14 of expansion divided by the number of iNKT cells put in culture at day 0. The number of cells is determined by routinely used techniques by the skilled person (cell couting and flow cytometry staining to determine the percentage of iNKT cells among total PBMCs).
PBMC obtained by centrifugation of fresh whole blood on density gradient were culture at the concentration of 5.10^5 cells/mL in RPMI 1640 advanced medium (ref: 11530446, Gibco®), with 5% SVF v/v, 4 mM glutamine, 100 ng/mL alpha-galactoside-ceramide (KRN-7000, Funakoshi). Cultures were performed in a cell culture bag in a normoxia incubator at 37° C. and 5% CO2.
On day 1 of culture, 10 ng/mL of IL-15 were added.
On day 7 of culture, 50% of the medium was changed and 10 ng/mL of IL-15 were introduced.
On day 10 of the culture, 50% of the medium was changed and 10 ng/mL of IL-15 were introduced. […]

Substance: IL-2: interleukin 2, comparator cytokine of the classical expansion protocol
- mean % CD4^− iNKT cells±SEM (D14 of culture, n=14): 47.7±7.35%
- mean expansion factor of CD4^− iNKT cells±SEM (cytokine present during expansion phase, n=17, cells at day 14 / cells at day 0): 158±38
